# This is a selection; strong and weak results do not stand in their true shares. Results filed as inconclusive are left out. The source made the active and inactive calls. Calls come from the whole dose curve; as a rule, active = well fitted inhibition curve with a large enough effect in the polarisation, with a control signal flat (not every such curve was filed as active); inconclusive = small, poorly fitted or top-dose-only effect, or effect the other way, or a change in a side signal; inactive = no such curve, though single readings can be large or run the other way; the % refers to the polarisation.
# By UniProt entry, the sequences of proteins in these tests, tags left out.
# UniProt Q03164, whole entry, looked up: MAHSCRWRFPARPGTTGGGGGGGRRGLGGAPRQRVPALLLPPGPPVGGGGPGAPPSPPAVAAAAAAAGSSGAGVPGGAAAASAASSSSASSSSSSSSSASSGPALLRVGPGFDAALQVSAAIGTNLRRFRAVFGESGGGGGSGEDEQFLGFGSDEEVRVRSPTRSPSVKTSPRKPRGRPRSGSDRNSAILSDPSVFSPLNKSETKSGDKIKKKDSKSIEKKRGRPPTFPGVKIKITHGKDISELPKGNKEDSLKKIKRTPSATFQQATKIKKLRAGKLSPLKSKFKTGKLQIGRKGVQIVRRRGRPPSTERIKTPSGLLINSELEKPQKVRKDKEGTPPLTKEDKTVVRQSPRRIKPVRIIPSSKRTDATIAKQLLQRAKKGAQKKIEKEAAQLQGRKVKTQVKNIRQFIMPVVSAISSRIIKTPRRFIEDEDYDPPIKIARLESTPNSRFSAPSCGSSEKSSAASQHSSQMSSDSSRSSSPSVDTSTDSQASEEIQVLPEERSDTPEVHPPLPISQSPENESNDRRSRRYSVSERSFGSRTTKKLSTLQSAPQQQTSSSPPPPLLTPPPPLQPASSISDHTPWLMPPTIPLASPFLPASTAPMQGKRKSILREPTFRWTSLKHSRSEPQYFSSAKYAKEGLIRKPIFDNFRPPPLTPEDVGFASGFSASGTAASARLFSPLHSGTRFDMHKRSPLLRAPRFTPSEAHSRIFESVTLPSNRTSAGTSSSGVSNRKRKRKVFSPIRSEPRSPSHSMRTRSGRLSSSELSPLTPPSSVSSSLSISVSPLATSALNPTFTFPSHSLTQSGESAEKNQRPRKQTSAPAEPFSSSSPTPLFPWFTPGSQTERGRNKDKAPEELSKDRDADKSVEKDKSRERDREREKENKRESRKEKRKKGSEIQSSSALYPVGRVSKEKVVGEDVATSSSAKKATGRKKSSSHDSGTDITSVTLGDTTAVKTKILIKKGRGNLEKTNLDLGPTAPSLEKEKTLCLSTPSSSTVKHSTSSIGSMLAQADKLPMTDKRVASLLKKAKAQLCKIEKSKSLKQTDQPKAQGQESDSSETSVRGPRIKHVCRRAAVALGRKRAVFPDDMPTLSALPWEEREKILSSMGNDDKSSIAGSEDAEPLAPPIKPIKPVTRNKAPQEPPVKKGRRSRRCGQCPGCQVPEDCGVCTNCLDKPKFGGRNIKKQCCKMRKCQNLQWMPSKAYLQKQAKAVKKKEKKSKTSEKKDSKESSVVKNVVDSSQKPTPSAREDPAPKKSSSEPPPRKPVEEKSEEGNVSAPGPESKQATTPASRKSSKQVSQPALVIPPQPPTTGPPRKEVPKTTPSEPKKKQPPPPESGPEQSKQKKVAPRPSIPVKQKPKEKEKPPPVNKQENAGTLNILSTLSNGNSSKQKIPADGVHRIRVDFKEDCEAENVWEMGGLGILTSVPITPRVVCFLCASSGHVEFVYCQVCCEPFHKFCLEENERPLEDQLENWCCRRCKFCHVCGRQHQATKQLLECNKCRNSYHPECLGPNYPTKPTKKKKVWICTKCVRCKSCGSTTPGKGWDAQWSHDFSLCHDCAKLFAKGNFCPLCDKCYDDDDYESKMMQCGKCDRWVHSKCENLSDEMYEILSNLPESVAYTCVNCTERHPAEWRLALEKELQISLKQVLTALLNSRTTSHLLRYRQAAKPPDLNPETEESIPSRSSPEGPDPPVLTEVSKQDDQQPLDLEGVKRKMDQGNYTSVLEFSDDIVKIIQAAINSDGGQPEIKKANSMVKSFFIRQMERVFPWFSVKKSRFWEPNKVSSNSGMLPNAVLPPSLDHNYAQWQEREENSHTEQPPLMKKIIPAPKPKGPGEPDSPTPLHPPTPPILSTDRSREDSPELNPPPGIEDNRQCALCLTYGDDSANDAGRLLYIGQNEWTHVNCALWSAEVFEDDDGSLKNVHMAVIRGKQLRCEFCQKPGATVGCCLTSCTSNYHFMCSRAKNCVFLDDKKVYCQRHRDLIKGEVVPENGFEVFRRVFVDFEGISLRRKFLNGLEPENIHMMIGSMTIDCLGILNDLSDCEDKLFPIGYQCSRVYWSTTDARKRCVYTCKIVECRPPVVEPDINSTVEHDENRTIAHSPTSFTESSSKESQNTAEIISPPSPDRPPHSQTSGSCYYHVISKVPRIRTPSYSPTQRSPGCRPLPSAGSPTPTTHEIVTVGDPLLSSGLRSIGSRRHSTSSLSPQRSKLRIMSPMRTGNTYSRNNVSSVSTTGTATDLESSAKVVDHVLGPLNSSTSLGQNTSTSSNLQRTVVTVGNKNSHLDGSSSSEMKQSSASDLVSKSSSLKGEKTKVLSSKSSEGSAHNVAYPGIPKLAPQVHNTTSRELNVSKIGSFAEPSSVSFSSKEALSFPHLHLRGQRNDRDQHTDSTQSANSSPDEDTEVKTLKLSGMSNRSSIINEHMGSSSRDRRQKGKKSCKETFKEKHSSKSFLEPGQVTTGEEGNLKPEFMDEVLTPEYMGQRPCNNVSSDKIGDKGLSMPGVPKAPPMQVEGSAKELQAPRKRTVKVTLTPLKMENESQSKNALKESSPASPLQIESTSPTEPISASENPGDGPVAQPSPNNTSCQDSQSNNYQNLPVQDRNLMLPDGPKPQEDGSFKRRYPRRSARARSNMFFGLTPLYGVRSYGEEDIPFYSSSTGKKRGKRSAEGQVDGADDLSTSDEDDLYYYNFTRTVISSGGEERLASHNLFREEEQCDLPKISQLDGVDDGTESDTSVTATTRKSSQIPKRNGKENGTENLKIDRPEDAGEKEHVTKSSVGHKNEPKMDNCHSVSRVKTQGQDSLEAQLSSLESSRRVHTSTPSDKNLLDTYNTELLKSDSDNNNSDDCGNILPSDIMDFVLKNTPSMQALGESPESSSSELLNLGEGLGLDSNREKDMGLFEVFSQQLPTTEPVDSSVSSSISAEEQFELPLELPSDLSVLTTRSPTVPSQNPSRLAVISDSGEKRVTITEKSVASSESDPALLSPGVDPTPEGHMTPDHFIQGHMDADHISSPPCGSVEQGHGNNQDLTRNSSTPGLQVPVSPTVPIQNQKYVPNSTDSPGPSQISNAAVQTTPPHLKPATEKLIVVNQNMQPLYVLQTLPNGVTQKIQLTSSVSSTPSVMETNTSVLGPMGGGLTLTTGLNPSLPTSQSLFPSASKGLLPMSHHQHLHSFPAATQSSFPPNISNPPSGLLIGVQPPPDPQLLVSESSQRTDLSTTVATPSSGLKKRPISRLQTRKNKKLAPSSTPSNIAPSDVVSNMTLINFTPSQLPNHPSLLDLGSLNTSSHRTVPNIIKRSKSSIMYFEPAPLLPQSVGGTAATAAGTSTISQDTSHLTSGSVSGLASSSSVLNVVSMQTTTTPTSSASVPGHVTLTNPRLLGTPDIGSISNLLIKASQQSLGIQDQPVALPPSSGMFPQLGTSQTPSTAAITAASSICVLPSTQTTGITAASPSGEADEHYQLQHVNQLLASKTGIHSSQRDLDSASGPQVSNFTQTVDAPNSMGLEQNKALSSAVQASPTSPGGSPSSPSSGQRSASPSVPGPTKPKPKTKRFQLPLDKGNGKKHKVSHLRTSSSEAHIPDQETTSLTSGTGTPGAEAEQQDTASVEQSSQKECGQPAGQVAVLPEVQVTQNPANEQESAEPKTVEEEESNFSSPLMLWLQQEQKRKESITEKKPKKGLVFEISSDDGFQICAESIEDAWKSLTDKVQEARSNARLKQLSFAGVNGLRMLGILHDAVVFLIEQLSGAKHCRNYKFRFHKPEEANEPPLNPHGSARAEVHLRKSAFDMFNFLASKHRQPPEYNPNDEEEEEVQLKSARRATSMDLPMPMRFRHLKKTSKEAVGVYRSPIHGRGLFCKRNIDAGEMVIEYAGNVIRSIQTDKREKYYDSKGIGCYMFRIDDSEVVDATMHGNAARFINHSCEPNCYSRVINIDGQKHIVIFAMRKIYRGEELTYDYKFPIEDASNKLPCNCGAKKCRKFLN
# Target: Histone-lysine N-methyltransferase 2A (Homo sapiens) (UniProt Q03164)
# Experiment: Confirmation of Inhibitors Targeting the Menin-MLL Interaction in MLL Related Leukemias: Competition With Fluorescein Labeled MLL-derived Peptide
# Settings: Fluorescence polarization, fluorescein-MLL peptide displacement from menin; at 100 µM (top of the series)
# % is set by controls: 0 for no effect and ±100 for the full control effect.
structure (smiles),measurement,value
O=[As](O)(c1cccs1)c1cccs1,"activity change, negative = inhibition",inactive: -10.9%

# Reference: PubChem BioAssay AID2783 (National Center for Advancing Translational Sciences (NCATS), 2010)
